Source: paper PMC12340637, “Transport of Small Aliphatic Amines by Polyspecific Solute Carriers: Deciphering Structure–Function Relationships” (ACS Pharmacology & Translational Science, 2025)
Like-named read-outs stand apart in the source and are kept apart here. Marks after values point to notes of the source that are not given here.

What was measured:
MATE2-K (SLC47A2) [1] = biological target: T1, MATE2-K (SLC47A2) (Homo sapiens, UniProt Q86VL8)
T1 sequence (Q86VL8 1-566 isoform Q86VL8-3): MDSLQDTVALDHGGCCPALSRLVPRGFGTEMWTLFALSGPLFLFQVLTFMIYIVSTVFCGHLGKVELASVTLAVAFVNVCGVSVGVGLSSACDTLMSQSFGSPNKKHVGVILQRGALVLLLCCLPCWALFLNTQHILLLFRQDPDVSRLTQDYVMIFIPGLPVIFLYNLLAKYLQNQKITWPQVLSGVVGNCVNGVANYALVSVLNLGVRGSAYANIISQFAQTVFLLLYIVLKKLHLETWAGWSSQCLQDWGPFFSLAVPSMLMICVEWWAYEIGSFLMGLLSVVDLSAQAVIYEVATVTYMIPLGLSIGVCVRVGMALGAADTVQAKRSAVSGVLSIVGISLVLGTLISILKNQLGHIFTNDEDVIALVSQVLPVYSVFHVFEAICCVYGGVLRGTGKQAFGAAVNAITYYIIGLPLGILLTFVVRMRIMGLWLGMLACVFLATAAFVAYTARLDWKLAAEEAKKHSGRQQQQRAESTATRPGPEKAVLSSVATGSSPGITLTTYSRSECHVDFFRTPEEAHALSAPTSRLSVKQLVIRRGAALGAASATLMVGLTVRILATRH

MATE1 (SLC47A1) [2] = biological target: T2, MATE1 (SLC47A1) (Homo sapiens, UniProt Q96FL8)
T2 sequence (Q96FL8 1-570): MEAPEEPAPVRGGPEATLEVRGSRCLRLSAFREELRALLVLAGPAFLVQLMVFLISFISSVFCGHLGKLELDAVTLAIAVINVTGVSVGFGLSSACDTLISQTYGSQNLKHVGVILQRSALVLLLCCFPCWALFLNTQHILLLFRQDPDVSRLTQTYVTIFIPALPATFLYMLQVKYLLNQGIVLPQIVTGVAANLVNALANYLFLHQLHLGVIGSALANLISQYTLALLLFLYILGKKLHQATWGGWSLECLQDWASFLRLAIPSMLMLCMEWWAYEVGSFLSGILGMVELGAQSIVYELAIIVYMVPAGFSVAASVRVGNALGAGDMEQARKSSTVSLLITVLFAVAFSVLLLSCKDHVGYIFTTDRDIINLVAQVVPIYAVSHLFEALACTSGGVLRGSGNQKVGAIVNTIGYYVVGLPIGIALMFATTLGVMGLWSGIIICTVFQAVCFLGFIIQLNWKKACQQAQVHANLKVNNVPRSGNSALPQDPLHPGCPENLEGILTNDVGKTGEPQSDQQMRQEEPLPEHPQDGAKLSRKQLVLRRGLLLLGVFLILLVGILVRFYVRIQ

OCT2 (SLC22A2) [3] = biological target: T3, OCT2 (SLC22A2) (Homo sapiens, UniProt O15244)
T3 sequence (O15244 1-555): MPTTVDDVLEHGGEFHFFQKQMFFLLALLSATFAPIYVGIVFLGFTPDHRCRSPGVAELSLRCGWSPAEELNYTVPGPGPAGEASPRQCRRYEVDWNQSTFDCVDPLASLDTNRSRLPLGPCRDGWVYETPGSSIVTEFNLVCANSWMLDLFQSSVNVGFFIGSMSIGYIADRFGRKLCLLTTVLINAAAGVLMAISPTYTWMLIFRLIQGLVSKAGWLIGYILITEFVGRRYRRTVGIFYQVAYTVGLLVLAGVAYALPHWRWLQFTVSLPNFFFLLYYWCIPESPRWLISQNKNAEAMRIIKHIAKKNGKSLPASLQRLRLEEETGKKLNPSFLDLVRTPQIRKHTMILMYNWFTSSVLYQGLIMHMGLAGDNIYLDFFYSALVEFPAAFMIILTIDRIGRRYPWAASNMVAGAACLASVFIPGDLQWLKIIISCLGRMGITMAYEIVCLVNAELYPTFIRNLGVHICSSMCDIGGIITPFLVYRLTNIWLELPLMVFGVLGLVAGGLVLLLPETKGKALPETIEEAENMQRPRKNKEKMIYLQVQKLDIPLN

OCT1 (SLC22A1) [4] = biological target: T4, OCT1 (SLC22A1) (Homo sapiens, UniProt O15245)
T4 sequence (O15245 1-554): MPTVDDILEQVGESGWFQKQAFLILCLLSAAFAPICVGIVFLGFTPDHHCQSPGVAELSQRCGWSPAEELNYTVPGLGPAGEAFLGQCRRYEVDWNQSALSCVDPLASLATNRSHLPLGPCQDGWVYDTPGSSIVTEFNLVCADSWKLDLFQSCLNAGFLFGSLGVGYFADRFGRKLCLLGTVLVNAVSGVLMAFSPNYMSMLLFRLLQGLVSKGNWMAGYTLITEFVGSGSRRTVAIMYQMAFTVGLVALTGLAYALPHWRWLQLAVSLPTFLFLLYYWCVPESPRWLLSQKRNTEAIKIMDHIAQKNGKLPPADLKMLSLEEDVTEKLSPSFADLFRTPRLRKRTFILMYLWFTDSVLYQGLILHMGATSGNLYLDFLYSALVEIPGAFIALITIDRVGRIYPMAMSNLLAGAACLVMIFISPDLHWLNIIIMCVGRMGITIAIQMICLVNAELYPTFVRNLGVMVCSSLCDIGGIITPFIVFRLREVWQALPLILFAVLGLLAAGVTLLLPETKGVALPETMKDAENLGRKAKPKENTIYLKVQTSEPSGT

OCT3 (SLC22A3) = biological target: T5, OCT3 (SLC22A3) (Homo sapiens, UniProt O75751); assay: Cellular uptake into OCT3-overexpressing HEK293 cells vs EV control cells (HPLC-MS/MS); settings: 10 μM substrate, 2 min
T5 sequence (O75751 1-556): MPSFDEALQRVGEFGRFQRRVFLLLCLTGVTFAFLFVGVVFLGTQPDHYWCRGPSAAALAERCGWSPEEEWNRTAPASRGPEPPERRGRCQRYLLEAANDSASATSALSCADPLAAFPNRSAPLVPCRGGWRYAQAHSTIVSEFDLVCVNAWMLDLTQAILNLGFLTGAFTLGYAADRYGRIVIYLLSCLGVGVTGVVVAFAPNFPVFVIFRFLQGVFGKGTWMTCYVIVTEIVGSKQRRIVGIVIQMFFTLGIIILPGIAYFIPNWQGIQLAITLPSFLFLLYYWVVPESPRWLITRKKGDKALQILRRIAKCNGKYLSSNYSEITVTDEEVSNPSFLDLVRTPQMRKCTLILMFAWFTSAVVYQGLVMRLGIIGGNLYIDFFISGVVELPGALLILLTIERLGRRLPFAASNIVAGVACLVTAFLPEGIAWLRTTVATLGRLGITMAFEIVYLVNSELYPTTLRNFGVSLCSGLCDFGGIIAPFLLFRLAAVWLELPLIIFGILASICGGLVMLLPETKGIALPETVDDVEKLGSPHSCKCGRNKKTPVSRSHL

MATE2-K (SLC47A2) [5] = biological target: T1, MATE2-K (SLC47A2); assay: Cellular uptake into MATE2-K-overexpressing HEK293 cells vs EV control cells (HPLC-MS/MS)
OCT2 (SLC22A2) [6] = biological target: T3, OCT2 (SLC22A2); assay: Cellular uptake into OCT2-overexpressing HEK293 cells vs EV control cells (HPLC-MS/MS)
OCT1 (SLC22A1) [7] = biological target: T4, OCT1 (SLC22A1); assay: Cellular uptake into OCT1-overexpressing HEK293 cells vs EV control cells (HPLC-MS/MS)
MATE1 (SLC47A1) [8] = biological target: T2, MATE1 (SLC47A1); assay: Cellular uptake into MATE1-overexpressing HEK293 cells vs EV control cells (HPLC-MS/MS)

Structure (SMILES) | stereoselectivity MATE1 (uptake ratio of the more strongly transported enantiomer divided by that of the other) (MATE1 (SLC47A1) [2]) | stereoselectivity OCT2 (uptake ratio of the more strongly transported enantiomer divided by that of the other) (OCT2 (SLC22A2) [3]) | stereoselectivity OCT1 (uptake ratio of the more strongly transported enantiomer divided by that of the other) (OCT1 (SLC22A1) [4]) | uptake ratio OCT3 (transporter-overexpressing cells over EV control cells): mean (±SD, N) (OCT3 (SLC22A3)) | uptake ratio MATE2K (transporter-overexpressing cells over EV control cells): mean (±SD, N) (MATE2-K (SLC47A2) [5]) | uptake ratio OCT2 (transporter-overexpressing cells over EV control cells): mean (±SD, N) (OCT2 (SLC22A2) [6]) | uptake ratio OCT1 (transporter-overexpressing cells over EV control cells): mean (±SD, N) (OCT1 (SLC22A1) [7]; 10 μM substrate, 2 min, HEK293) | uptake ratio MATE1 (transporter-overexpressing cells over EV control cells): mean (±SD, N) (MATE1 (SLC47A1) [8]) | also measured
C[C@@H](O)CN [(R)-(−)-1-amino-2-propanol] | 1.1-fold for (R) |  |  |  |  |  |  |  | stereoselectivity MATE2K (uptake ratio of the more strongly transported enantiomer divided by that of the other) (MATE2-K (SLC47A2) [1]): 1.3-fold for (R)
CN(CCCN)CCCN [3,3′-diamino-N-methyldipropylamin] |  |  |  | - ^d | 1.0 (0.7, 5) | - ^d | - ^d | 1.7 (1.3, 5) | substrate activity at OCT2 (in words) (OCT2 (SLC22A2) [6]): did not show any substrate activity; substrate activity at MATE1 (in words) (MATE1 (SLC47A1) [8]): did not show any substrate activity
OCCNCCO [diethanolamine] |  |  |  | 1.2 (0.3, 4) |  |  | 1.2 (0.5, 4) | 1.0 (0.2, 4) | uptake ratio MATE2K (transporter-overexpressing cells over EV control cells): mean (±SD, N) (MATE2-K (SLC47A2) [5]; 2.5 μM substrate, 1 min, 30 mM NH4Cl preincubation, HEK293): 1.4 (0.3, 4); uptake ratio OCT2 (transporter-overexpressing cells over EV control cells): mean (±SD, N) (OCT2 (SLC22A2) [6]; 10 μM substrate, 2 min, HEK293): 0.7 (0.2, 4)
NCCCO [3-amino-1-propanol] |  |  |  | 1.0 (0.2, 4) | 1.1 (0.1, 4) | 4.0 (0.8, 4) ^b |  | 1.5 (0.4, 4) | uptake ratio OCT1 (transporter-overexpressing cells over EV control cells): mean (±SD, N) (OCT1 (SLC22A1) [7]): 1.4 (0.5, 5)

Further lines, with some results ahead:

stereoselectivity MATE1 (uptake ratio of the more strongly transported enantiomer divided by that of the other) (MATE1 (SLC47A1) [2]) | stereoselectivity OCT2 (uptake ratio of the more strongly transported enantiomer divided by that of the other) (OCT2 (SLC22A2) [3]) | stereoselectivity OCT1 (uptake ratio of the more strongly transported enantiomer divided by that of the other) (OCT1 (SLC22A1) [4]) | Structure (SMILES) | uptake ratio OCT3 (transporter-overexpressing cells over EV control cells): mean (±SD, N) (OCT3 (SLC22A3)) | uptake ratio MATE2K (transporter-overexpressing cells over EV control cells): mean (±SD, N) (MATE2-K (SLC47A2) [5]) | uptake ratio OCT2 (transporter-overexpressing cells over EV control cells): mean (±SD, N) (OCT2 (SLC22A2) [6]) | uptake ratio OCT1 (transporter-overexpressing cells over EV control cells): mean (±SD, N) (OCT1 (SLC22A1) [7]; 10 μM substrate, 2 min, HEK293) | uptake ratio MATE1 (transporter-overexpressing cells over EV control cells): mean (±SD, N) (MATE1 (SLC47A1) [8]) | also measured
1.2-fold for (S) | 3.5-fold for(S) ^b | 1.2-fold for (S) | C[C@H](N)CO [(S)-(+)-2-Amino-1-propanol] |  |  |  |  |  | 
 | 1.3-fold for (S) | 1.1-fold for (S) | C[C@H](O)CN [(S)-(+)-1-amino-2-propanol] |  |  |  |  |  | 
